Molecular target: High affinity cGMP-specific 3',5'-cyclic phosphodiesterase 9A (Homo sapiens, UniProt O76083)
Experiment: Inhibition of human recombinant PDE9 expressed in SF9 cells by scintillation proximity assay

Chains of the proteins cited; added tags and fusions are not shown. Lines headed by an entry give the natural chain unless they say otherwise; changes in a name come on top.
UniProt O76083: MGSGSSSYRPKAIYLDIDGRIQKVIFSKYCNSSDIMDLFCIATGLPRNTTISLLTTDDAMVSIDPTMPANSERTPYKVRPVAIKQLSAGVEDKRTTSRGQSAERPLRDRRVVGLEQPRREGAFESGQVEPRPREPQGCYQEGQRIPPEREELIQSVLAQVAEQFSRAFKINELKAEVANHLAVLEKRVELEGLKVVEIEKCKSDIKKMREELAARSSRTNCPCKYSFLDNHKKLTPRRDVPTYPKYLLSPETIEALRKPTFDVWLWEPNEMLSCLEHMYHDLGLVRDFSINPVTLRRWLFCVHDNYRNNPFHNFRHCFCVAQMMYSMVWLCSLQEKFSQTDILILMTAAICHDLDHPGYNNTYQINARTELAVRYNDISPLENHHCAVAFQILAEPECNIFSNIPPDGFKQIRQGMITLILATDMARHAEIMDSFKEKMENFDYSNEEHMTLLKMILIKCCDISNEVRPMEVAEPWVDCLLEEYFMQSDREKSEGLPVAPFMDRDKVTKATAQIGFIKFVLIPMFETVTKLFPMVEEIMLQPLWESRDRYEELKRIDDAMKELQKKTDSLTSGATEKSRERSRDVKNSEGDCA

In the case of `CC(C)c1n[nH]c2c(=O)[nH]c(Cc3cccc(Cl)c3)nc12`, the IC50 is reported as 10 nM.

Source: ChEMBL document CHEMBL1138608, “The discovery of potent, selective, and orally bioavailable PDE9 inhibitors as potential hypoglycemic agents” (Bioorg Med Chem Lett, 2009)
